As usually defined, the IC50 is the concentration at which inhibition is half-maximal.

The chains behind the UniProt entries cited, without tags or fusion partners.
UniProt O14744, whole entry: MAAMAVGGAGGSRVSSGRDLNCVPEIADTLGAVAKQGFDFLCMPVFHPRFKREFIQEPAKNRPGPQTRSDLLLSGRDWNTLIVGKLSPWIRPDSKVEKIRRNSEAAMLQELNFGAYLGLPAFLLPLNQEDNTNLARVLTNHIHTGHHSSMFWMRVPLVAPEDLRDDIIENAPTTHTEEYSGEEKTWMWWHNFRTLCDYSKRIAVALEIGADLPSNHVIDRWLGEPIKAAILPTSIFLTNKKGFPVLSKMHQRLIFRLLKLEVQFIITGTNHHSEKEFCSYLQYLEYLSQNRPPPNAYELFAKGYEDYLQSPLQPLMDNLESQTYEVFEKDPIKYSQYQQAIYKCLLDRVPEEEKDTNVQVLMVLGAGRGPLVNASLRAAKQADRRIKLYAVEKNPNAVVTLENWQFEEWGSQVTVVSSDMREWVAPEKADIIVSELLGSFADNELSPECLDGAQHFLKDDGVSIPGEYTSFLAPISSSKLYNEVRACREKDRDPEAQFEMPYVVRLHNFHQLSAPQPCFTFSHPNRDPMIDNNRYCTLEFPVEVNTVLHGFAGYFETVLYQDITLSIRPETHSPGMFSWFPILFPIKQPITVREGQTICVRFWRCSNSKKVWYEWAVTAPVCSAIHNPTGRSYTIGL
UniProt Q9BQA1, whole entry partner: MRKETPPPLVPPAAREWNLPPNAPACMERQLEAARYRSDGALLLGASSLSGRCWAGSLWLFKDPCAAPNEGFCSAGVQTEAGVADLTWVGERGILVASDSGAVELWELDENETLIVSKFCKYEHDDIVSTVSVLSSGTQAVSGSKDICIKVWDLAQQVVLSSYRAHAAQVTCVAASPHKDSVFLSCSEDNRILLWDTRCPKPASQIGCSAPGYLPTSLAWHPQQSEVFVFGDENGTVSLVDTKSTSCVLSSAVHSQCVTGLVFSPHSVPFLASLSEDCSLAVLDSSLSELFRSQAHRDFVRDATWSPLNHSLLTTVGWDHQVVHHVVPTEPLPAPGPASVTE

For one data set, the system named is LU99 cells. Description: LU99 cell proliferation inhibition assay (CellTiter-Glo). Particulars: read-out: Antiproliferative activity IC50 (nM) in LU99 cell, incubated for 6 days, 10 µM to 0.128 nM, tested form: free base.
The target in the next data set is PRMT5·MTA (Homo sapiens, UniProt O14744). In words: PRMT5·MTA enzyme inhibitory activity assay (LANCE Ultra TR-FRET). Particulars: read-out: PRMT5-MTA inhibitory activity IC50, buffer with MTA 2.6 µM, SAM 1.3 µM, tested form: free base. Background: Time-resolved FRET reads energy transfer from a long-lived donor to a nearby acceptor.
A further data set relates to HCT116 WT. Description: In vitro detection of SDMA levels in HCT116 WT cells.
The next data set deals with HCT116 MTAP KO. In words: In vitro detection of SDMA levels in HCT116 MTAP KO cells.
Data set [1] can be described thus: Plasma protein binding rate assay (equilibrium dialysis), mouse plasma. Particulars: M (mouse) plasma, 2 µM, 4 hours dialysis, tested form: free base. A general note: In equilibrium dialysis only unbound substance equilibrates across the membrane.
Data set [2] is described as follows: Plasma protein binding rate assay (equilibrium dialysis), rat plasma. The following applies: R (rat) plasma, 2 µM, 4 hours dialysis, tested form: free base.
Data set [3] in a line: Plasma protein binding rate assay (equilibrium dialysis), dog plasma. The following applies: D (dog) plasma, 2 µM, 4 hours dialysis, tested form: free base.
Data set [4] can be described thus: Plasma protein binding rate assay (equilibrium dialysis), human plasma. The following applies: H (human) plasma, 2 µM, 4 hours dialysis, tested form: free base.
In data set [5] the test system is MDCKII-MDR1 monolayer cell. In words: In vitro MDCKII-MDR1 monolayer cell permeability test. The following applies: 50 µM, 150 minutes, pH 7.40, tested form: free base.
The nature of data set [6]: Pharmacokinetic evaluation in mice (plasma, IV and PO). The following applies: tested form: free base.
The subject of data set [7] is human large cell lung cancer LU99. Description: Antitumor activity test in BALB/c nude mouse subcutaneous xenograft tumor model of LU99. The following applies: day 19, tested form: free base.
Where [8] appears, read: read-out: SDMA IC50, cultured for 4 days, tested form: free base, single stereoisomer (one of 3).
Setting [9] is: read-out: SDMA IC50, cultured for 4 days, tested form: free base, single enantiomer separated b.
Where [10] appears, read: IV, 1 mg/kg, single enantiomer separated b.

Where two headings read alike, the source gives them in different places.

With `C#Cc1ccc2c(n1)C(C)OCC2N(C)C(=O)c1cc2c(cc1F)nc(N)c1cnn(C)c12` (centres unmarked), the IC50 with LU99 cells (single stereoisomer (one of 3)) was 1.9 nM; at PRMT5·MTA (single stereoisomer (one of 3)), 2.2 nM; in the data set on HCT116 WT (setting [8]) it was 10.7 nM; in the data set with HCT116 MTAP KO (setting [8]), 1.2 nM. Moreover, the PPB_unbound in data set [1] (single stereoisomer (one of 3)) is 3.4%; in data set [2] (single stereoisomer (one of 3)), 6.9%; in data set [3] (single stereoisomer (one of 3)) it was 4.3%; in [4] (single stereoisomer (one of 3)), 5.8%. The “Apparent permeability coefficient (A to B)” value in data set [5] (single stereoisomer (one of 3)) is 9.39 10^-6 cm/s. Also, in data set [6] (IV, 1 mg/kg, single stereoisomer (one of 3)), the Tlast is 8 h. Moreover, the TGI in data set [7] (Dosing regimen 2, 5 mpk p.o. QD, single stereoisomer (one of 3)) is 68%; in data set [7] (Dosing regimen 2, 15 mpk p.o. QD, single stereoisomer (one of 3)) it was 93%; in data set [7] (Dosing regimen 2, 50 mpk p.o. QD, single stereoisomer (one of 3)), 102%.

Turning to `C#Cc1ccc2c(c1)OCC2N(C)C(=O)c1cc2c(cc1F)nc(N)c1cnn(C)c12` (centres unmarked), the IC50 came out at 2.9 nM in the data set with LU99 cells (single enantiomer separated b), 1.8 nM at PRMT5·MTA (single enantiomer separated b), 53.1 nM in the data set with HCT116 WT (setting [9]) and 0.2 nM with HCT116 MTAP KO (setting [9]). The PPB_unbound in data set [1] (single enantiomer separated b) amounted to 0.6%; in data set [2] (single enantiomer separated b) it was 0.5%; in [3] (single enantiomer separated b) it was 1.5%; in [4] (single enantiomer separated b) it was 1.4%. Moreover, in data set [5] (single enantiomer separated b), the “Apparent permeability coefficient (A to B)” value was 6.38 10^-6 cm/s. Besides, the Tlast in [6] (setting [10]) stood at 8 h; in [6] (PO, 2 mg/kg, single enantiomer separated b) it was 24 h. In addition, the TGI in data set [7] (Dosing regimen 1, 7.5 mpk p.o. QD, single enantiomer separated b) was found to be 87%; in data set [7] (Dosing regimen 1, 15 mpk p.o. QD, single enantiomer separated b) it was 100%.

`C#Cc1ccc2c(n1)COCC2N(C)C(=O)c1cc2c(cc1F)nc(N)c1cnn(C)c12` (centres unmarked): the IC50 in the data set on LU99 cells (single enantiomer separated b) was found to be 3.1 nM; on PRMT5·MTA (single enantiomer separated b), 2.2 nM; with HCT116 WT (setting [9]), 44 nM; in the data set with HCT116 MTAP KO (setting [9]), 0.1 nM. Further, the results for the PPB_unbound in data set [1] (single enantiomer separated b), in data set [3] (single enantiomer separated b) and in [4] (single enantiomer separated b) were 10.3%, 17.2% and 7.7%, respectively. Also, in data set [5] (single enantiomer separated b), the “Apparent permeability coefficient (A to B)” value is reported as 8.15 10^-6 cm/s. In addition, the Tlast in data set [6] (setting [10]) worked out at 6 h. Also, the TGI in data set [7] (Dosing regimen 2, 5 mpk p.o. QD, single enantiomer separated b) is on record as 84%; in data set [7] (Dosing regimen 2, 15 mpk p.o. QD, single enantiomer separated b) it was 89%; in data set [7] (Dosing regimen 2, 50 mpk p.o. QD, single enantiomer separated b), 103%.

(Values after patent publication EP4578862A1.)
